Source: patent US9783530B2, “Factor Xla inhibitors” (Merck Sharp & Dohme Corp., priority 2014, dated 2017)

Amino acid sequences for entries named in this document (tags omitted). Residues count along the entry.
UniProt P03951, 19-387 partner: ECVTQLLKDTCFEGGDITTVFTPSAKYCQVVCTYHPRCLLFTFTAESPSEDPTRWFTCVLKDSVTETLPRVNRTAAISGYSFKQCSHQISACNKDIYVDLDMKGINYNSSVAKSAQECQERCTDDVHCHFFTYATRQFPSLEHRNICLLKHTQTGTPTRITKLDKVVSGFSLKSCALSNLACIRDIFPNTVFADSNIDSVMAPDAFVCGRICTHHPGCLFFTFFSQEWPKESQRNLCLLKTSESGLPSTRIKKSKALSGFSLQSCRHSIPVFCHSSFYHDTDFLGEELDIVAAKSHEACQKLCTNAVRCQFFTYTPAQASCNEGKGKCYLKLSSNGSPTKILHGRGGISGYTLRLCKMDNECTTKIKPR
UniProt P03951, 388-625: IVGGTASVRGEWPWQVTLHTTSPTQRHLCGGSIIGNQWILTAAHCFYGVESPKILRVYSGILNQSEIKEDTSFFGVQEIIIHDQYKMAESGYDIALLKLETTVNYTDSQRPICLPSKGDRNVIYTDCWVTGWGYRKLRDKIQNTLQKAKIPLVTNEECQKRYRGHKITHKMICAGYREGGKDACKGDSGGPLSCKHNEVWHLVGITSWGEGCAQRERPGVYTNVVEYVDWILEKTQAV

Target: purified human Factor XIa (Homo sapiens (Human), UniProt P03951)
Assay: Factor XIa Assay
Assay type: biochemical
Details: purified human Factor XIa 40 pM, substrate Z-Gly-Pro-Arg-AFC, pH 7.4; read-out: FXIa IC50
Experimental: The effectiveness of a compound of the present invention as an inhibitor of Coagulation Factor XIa can be determined using a relevant purified serine protease, and an appropriate synthetic substrate. The rate of hydrolysis of the chromogenic or fluorogenic substrate by the relevant serine protease was measured both in the absence and presence of compounds of the present invention. Assays were conducted at room temperature or at 37° C. […] A decrease in the rate of fluorescence change in the presence of inhibitor is indicative of enzyme inhibition. Such methods are known to one skilled in the art. […]
Factor XIa determinations were made in 50 mM HEPES buffer at pH 7.4 containing 150 mM NaCl, 5 mM CaCl2, and 0.1% PEG 8000 (polyethylene glycol; JT Baker or Fisher Scientific). Determinations were made using purified human Factor XIa at a final concentration of 40 pM (Sekisui Diagnostics) and he synthetic substrate, Z-Gly-Pro-Arg-AFC, TFA salt (Sigma #C0980) at a concentration of 100 µM.
Activity assays were performed by diluting a stock solution of substrate at least tenfold to a final concentration ≦0.1 Km into a solution containing enzyme or enzyme equilibrated with inhibitor. Times required to achieve equilibration between enzyme and inhibitor were determined in control experiments. Initial velocities of product formation in the absence (Vo) or presence of inhibitor (Vi) were measured. […]

pIC50 | Compound
9.17 | O=C(O)c1ccc(NC(=O)C(CC2CC2)c2ccc(-c3cc(Cl)ccc3-n3cc(C(F)F)nn3)c[n+]2[O-])cc1 (single isomer, unassigned) [Example 52, 4-{[2-(5-{5-chloro-2-[4-(difluoromethyl)-1H-1,2,3-triazol-1-yl]phenyl}-1-oxidopyridin-2-yl)-3-cyclopropylpropanoyl]amino}benzoic acid]
6.74 | O=C(O)c1ccc(NC(=O)C(CC2CC2)c2ccc(-c3cc(Cl)ccc3-n3cc(C(F)F)nn3)c[n+]2[O-])cc1 (single isomer, unassigned) [Example 51, 4-{[2-(5-{5-chloro-2-[4-(difluoromethyl)-1H-1,2,3-triazol-1-yl]phenyl}-1-oxidopyridin-2-yl)-3-cyclopropylpropanoyl]amino}benzoic acid]

pIC50: −log10 of the molar value.
